Our source for the Thrombin Time values is US6133011.

This experiment has as its target thrombin.

Regarding “prourokinase (from UniProt P00749) (enzyme)”, the Thrombin Time was determined as 33 s.
